Data: ChEMBL document CHEMBL3745693, “Molecular Mechanism of Action of Triazolobenzodiazepinone Agonists of the Type 1 Cholecystokinin Receptor. Possible Cooperativity across the Receptor Homodimeric Complex” (J Med Chem, 2015)

By UniProt entry, the sequences of proteins in these tests, tags left out. Where a name states a change or a piece, a line headed by the entry shows the natural chain unless it says otherwise.
UniProt P32238, whole entry, looked up: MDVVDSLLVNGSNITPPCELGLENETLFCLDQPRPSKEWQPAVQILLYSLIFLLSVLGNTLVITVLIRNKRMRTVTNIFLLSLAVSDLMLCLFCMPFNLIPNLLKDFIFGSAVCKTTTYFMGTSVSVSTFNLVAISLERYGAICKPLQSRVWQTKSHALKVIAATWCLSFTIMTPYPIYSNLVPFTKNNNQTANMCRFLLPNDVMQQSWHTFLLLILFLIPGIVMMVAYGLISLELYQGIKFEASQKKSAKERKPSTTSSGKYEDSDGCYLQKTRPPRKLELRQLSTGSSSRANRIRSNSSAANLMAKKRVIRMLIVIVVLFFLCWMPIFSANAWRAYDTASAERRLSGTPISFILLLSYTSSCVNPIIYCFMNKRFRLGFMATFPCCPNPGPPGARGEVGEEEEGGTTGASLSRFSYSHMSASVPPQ
UniProt P32238, whole entry V125A: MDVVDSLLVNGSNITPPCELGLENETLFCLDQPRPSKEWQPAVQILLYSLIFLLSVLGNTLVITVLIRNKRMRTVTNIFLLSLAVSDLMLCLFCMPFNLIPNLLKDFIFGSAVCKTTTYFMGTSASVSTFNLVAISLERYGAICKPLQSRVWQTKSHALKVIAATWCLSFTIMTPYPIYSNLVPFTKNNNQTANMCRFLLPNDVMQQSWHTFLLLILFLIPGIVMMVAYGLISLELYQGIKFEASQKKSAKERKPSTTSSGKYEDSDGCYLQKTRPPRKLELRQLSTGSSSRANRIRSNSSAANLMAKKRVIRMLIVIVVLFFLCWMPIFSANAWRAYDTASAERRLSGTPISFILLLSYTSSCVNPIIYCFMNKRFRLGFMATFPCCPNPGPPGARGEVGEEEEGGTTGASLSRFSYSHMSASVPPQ
UniProt P32238, whole entry W326A: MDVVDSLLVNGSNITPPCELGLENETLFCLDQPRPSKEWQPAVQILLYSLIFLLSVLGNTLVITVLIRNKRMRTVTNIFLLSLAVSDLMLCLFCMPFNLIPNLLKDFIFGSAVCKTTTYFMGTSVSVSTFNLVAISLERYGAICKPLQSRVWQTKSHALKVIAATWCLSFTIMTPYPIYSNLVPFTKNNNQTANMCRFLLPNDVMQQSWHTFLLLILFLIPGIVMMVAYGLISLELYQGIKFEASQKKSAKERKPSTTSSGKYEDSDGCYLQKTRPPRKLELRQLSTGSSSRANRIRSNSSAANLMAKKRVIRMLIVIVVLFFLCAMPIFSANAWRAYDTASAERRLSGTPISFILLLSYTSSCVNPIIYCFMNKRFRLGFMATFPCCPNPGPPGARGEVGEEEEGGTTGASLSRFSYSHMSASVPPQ
UniProt P32238, whole entry T117V/T118S: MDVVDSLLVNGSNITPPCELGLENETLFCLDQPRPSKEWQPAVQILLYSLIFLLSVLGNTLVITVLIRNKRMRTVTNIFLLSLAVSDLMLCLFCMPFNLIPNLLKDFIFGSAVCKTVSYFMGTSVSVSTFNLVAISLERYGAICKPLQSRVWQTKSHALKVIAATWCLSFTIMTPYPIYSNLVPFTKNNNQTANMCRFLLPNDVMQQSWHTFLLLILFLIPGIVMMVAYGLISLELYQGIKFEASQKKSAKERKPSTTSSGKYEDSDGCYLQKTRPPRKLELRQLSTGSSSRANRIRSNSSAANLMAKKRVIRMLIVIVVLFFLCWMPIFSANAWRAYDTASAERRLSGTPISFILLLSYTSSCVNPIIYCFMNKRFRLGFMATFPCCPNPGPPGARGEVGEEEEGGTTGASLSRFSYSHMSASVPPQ
UniProt P32238, whole entry N98T: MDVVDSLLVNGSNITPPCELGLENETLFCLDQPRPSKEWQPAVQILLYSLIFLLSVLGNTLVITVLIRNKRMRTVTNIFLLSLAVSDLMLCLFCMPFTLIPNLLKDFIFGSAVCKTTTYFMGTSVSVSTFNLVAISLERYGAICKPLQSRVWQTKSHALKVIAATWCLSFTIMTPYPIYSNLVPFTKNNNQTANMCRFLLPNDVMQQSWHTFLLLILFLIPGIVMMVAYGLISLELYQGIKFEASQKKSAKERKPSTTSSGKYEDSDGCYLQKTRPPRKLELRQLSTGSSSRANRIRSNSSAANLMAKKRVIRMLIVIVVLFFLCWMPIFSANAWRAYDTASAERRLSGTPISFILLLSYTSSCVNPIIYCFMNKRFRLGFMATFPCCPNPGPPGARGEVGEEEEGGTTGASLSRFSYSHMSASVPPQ
UniProt P32238, whole entry M121A: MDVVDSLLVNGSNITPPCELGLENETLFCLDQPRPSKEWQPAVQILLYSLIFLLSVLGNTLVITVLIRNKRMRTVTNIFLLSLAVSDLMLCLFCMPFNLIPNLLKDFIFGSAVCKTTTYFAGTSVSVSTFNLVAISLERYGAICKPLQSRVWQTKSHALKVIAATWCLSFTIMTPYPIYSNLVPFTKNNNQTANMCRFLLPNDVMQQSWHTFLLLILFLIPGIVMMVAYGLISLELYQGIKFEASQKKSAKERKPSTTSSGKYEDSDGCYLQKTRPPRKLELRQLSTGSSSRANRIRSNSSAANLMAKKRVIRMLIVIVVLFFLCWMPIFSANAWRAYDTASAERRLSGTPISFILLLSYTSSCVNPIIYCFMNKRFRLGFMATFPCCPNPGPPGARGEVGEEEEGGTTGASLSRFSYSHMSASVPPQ
UniProt P30551: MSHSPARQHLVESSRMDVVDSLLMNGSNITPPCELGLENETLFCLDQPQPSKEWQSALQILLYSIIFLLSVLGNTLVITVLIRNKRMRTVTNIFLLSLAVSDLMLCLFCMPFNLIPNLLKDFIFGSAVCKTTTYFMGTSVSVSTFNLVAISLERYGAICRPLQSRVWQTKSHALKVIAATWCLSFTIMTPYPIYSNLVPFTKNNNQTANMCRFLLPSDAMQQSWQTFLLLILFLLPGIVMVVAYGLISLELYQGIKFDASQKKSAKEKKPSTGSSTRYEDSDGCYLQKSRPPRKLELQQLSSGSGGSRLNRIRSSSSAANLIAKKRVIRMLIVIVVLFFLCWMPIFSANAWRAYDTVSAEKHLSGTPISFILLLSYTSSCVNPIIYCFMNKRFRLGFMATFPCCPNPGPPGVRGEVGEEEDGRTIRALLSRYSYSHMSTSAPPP
UniProt P30553: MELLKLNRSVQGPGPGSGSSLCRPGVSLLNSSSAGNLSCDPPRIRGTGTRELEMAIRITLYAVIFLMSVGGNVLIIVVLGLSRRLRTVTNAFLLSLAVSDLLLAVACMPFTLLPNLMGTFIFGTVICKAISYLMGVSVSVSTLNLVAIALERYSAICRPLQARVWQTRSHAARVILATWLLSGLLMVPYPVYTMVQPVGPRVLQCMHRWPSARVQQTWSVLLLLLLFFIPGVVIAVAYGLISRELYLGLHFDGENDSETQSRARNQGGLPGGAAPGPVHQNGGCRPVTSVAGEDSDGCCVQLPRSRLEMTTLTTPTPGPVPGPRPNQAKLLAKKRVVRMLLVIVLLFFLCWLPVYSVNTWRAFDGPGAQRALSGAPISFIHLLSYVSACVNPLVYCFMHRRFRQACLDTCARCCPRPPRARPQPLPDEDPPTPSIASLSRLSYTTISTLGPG

Tests used:
[1] = molecular target: T1, Cholecystokinin receptor type A (Homo sapiens, UniProt P32238); test: Agonist activity at human CCK1R I6.51V, F6.52Y mutant expressed in CHO cells assessed as intracellular calcium response by fluorescence analysis; assay type: functional, cell-based
[2] = molecular target: T2, Gastrin/cholecystokinin type B receptor (Homo sapiens, UniProt P32239); test: Displacement of [125I-CCK] from wild-type human CCK2R expressed in CHO cells after 60 mins by scintillation counter; assay type: cell-based
T2 sequence (P32239 whole entry): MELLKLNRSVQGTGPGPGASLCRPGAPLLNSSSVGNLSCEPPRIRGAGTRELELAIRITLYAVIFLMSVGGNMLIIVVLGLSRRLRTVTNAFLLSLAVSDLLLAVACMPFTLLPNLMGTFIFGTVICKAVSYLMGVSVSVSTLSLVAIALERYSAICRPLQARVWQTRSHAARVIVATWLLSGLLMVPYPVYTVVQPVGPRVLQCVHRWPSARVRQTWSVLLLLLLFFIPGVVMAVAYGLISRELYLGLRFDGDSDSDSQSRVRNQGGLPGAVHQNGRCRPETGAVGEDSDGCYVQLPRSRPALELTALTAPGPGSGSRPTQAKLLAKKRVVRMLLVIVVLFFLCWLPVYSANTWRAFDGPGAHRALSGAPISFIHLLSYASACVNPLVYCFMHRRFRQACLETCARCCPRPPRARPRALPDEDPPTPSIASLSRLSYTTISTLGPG

[3] = molecular target: Cholecystokinin receptor type A (Homo sapiens, UniProt P32238, V125A); test: Displacement of [125I-BDZ-1] from human CCK1R V3.36A mutant expressed in CHO cells after 60 mins by scintillation counter; assay type: cell-based
[4] = molecular target: Gastrin/cholecystokinin type B receptor (Homo sapiens, UniProt P32239, H376L); test: Displacement of [125I-CCK] from human CCK2R H7.39L mutant expressed in CHO cells after 60 mins by scintillation counter; assay type: cell-based
[5] = molecular target: T3, Cholecystokinin receptor type A (Homo sapiens, UniProt P32238, W326A); test: Displacement of [125I-BDZ-1] from human CCK1R W6.48A mutant expressed in CHO cells after 60 mins by scintillation counter; assay type: cell-based
[6] = molecular target: Gastrin/cholecystokinin type B receptor (Homo sapiens, UniProt P32239, S131T/V130T); test: Displacement of [125I-CCK] from human CCK2R V3.28T, S3.29T mutant expressed in CHO cells after 60 mins by scintillation counter; assay type: cell-based
[7] = molecular target: T4, Cholecystokinin receptor type A (Homo sapiens, UniProt P32238, T117V/T118S); test: Agonist activity at human CCK1R T3.28V, T3.29S mutant expressed in CHO cells assessed as intracellular calcium response by fluorescence analysis; assay type: functional, cell-based
[8] = molecular target: T1, Cholecystokinin receptor type A; test: Displacement of [125I-BDZ-1] from human CCK1R I6.51V, F6.52Y mutant expressed in CHO cells after 60 mins by scintillation counter; assay type: cell-based
[9] = molecular target: Cholecystokinin receptor type A (Homo sapiens, UniProt P32238, N98T); test: Displacement of [125I-CCK] from human CCK1R N2.61T mutant expressed in CHO cells after 60 mins by scintillation counter; assay type: cell-based
[10] = molecular target: Cholecystokinin receptor (Rattus norvegicus, UniProt P30551+P30553); test: Displacement of [125I]-BDZ-1 from rat CCK1R Ala-317,321,325 non dimerizing mutant expressed in COS cells after 60 mins by scintillation counter; assay type: cell-based
[11] = molecular target: T1, Cholecystokinin receptor type A; test: Displacement of [125I-CCK] from human CCK1R I6.51V, F6.52Y mutant expressed in CHO cells after 60 mins by scintillation counter; assay type: cell-based
[12] = molecular target: T2, Gastrin/cholecystokinin type B receptor; test: Partial agonist activity at wild-type human CCK2R expressed in CHO cells assessed as intracellular calcium response by fluorescence analysis; assay type: functional, cell-based
[13] = molecular target: T1, Cholecystokinin receptor type A; test: Agonist activity at human CCK1R N2.61T mutant expressed in CHO cells assessed as intracellular calcium response by fluorescence analysis; assay type: functional, cell-based
[14] = molecular target: T4, Cholecystokinin receptor type A; test: Displacement of [125I-BDZ-1] from human CCK1R T3.28V, T3.29S mutant expressed in CHO cells after 60 mins by scintillation counter; assay type: cell-based
[15] = molecular target: T1, Cholecystokinin receptor type A; test: Agonist activity at wild-type human CCK1R expressed in CHO cells assessed as intracellular calcium response by fluorescence analysis; assay type: functional, cell-based
[16] = molecular target: T4, Cholecystokinin receptor type A; test: Displacement of [125I-CCK] from human CCK1R T3.28V, T3.29S mutant expressed in CHO cells after 60 mins by scintillation counter; assay type: cell-based
[17] = molecular target: T3, Cholecystokinin receptor type A; test: Displacement of [125I-CCK] from human CCK1R W6.48A mutant expressed in CHO cells after 60 mins by scintillation counter; assay type: cell-based
[18] = molecular target: Cholecystokinin receptor type A (Homo sapiens, UniProt P32238, M121A); test: Displacement of [125I-CCK] from human CCK1R M3.32A mutant expressed in CHO cells after 60 mins by scintillation counter; assay type: cell-based

SMILES	pEC50 [1]	Ki [2] [nM]	IC50 [3] [nM]	IC50 [4] [nM]	IC50 [5] [nM]	IC50 [6] [nM]	EC50 [7] [nM]	pIC50 [8]	IC50 [9] [nM]	IC50 [10] [nM]	pIC50 [11]	EC50 [12] [nM]	pEC50 [13]	IC50 [14] [nM]	EC50 ([15]; read-out: EC50) [nM]	EC50 ([15]; read-out: pEC50 (converted)) [nM]	IC50 [16] [nM]	IC50 [17] [nM]	IC50 [18] [nM]
Cc1cc(C)cc(C[C@H]2CCCCN2C(=O)CN2C(=O)[C@@H](Cc3n[nH]c4ccccc34)c3nnc(-c4ccccc4)n3-c3ccccc32)c1	7.16	1410	955	7.59	61.7	302	0.12	6	0.813	17.02	7.15	–	–	–	–	–	–	–	–
CC(C)N(Cc1ccccc1)C(=O)CN1C(=O)[C@@H](Cc2c[nH]c3ccccc23)c2nnc(-c3ccccc3)n2-c2ccccc21 [CE-326597]	7.38	–	–	–	–	209	1.38	6	–	25	7.37	1000	9.28	4.47	1.8	1.51	37.2	41.7	166
